Experimental data as given in patent US4352810A, “1-Substituted hydroxyiminomethyl-pyridinium salts, with an activity against organophosphate poisonings” (dated 1982).

Protein sequences, listed by entry. Tags and fused reporters are not part of them. Residues count along the entry.
UniProt P23795, 31-614 isoform 2 limits assumed: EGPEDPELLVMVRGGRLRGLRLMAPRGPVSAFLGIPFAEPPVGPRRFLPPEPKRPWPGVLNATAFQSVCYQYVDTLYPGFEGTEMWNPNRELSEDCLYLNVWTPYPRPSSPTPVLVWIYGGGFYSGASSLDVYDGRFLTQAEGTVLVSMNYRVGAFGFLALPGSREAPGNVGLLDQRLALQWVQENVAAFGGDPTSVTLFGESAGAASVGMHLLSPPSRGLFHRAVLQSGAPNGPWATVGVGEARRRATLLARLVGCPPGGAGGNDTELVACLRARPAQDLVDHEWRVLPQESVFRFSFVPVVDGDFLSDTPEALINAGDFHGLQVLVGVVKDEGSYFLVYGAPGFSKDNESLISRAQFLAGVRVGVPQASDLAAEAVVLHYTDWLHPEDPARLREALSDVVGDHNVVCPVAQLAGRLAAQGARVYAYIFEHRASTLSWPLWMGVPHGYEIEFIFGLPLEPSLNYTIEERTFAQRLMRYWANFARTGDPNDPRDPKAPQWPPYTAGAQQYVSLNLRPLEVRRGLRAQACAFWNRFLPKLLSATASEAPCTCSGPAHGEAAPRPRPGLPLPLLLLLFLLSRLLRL

Target: tabun-inhibited acetylcholinesterase (Bos taurus, UniProt P23795)
Details: 10 μM; for kobs, velocity constant of the reactivation process: pH 7.5, 25° C. (Table B); for % react after 2h / % react, percentage reactivation after 24 hours (footnote a): pH 7.5, 25° C.; for % react after 2h: 2 hours (Table B); for % react, percentage reactivation after 24 hours (footnote a): 24 hours (Table B)

Compound	kobs, velocity constant of the reactivation process	% react after 2h	% react, percentage reactivation after 24 hours (footnote a)
ON=Cc1cccc[n+]1Cc1ccccc1	5.83 ± 0.09 10^-3 min^-1	41%	
ON=Cc1cc[n+](Cc2ccccn2)cc1	< 0.1 10^-3 min^-1		3%
Cc1ccccc1C[n+]1ccccc1C=NO	1.6 ± 0.1 10^-3 min^-1	13%	
ON=Cc1cc[n+](Cc2ccccc2)cc1	< 0,1 10^-3 min^-1		3%
ON=Cc1cc[n+](Cc2ccc(C[n+]3ccc(C=NO)cc3)cc2)cc1	no first order	33%	
ON=Cc1cccc[n+]1Cc1ccc(C[n+]2ccccc2C=NO)cc1	1.38 ± 0.06 10^-3 min^-1	12%	
ON=Cc1cccc[n+]1C(c1ccccc1)c1ccccc1	1.06 ± 0.04 10^-3 min^-1	7%	
Cc1ccc(C[n+]2ccccc2C=NO)cc1	3.44 ± 0.06 10^-3 min^-1	28%	
